# Target: GABA-A receptor; alpha-1/beta-2/gamma-2 (Homo sapiens) (UniProt P14867+P47870+P18507)
# The chains behind the UniProt entries cited, without tags or fusion partners. Where a name states a change or a piece, a line headed by the entry shows the natural chain unless it says otherwise.
# UniProt P14867: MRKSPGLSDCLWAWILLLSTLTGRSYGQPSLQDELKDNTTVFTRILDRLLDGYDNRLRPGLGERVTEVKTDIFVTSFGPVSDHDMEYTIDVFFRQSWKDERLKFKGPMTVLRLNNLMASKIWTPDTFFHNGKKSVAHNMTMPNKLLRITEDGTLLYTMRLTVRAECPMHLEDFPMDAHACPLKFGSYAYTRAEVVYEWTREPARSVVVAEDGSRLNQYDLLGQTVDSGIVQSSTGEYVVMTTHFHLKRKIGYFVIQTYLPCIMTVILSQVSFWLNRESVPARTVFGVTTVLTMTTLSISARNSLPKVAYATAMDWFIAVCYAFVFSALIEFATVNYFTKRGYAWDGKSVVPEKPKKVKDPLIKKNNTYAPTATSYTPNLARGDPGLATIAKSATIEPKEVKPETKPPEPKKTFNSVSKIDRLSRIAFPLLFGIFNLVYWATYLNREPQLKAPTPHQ
# UniProt P47870: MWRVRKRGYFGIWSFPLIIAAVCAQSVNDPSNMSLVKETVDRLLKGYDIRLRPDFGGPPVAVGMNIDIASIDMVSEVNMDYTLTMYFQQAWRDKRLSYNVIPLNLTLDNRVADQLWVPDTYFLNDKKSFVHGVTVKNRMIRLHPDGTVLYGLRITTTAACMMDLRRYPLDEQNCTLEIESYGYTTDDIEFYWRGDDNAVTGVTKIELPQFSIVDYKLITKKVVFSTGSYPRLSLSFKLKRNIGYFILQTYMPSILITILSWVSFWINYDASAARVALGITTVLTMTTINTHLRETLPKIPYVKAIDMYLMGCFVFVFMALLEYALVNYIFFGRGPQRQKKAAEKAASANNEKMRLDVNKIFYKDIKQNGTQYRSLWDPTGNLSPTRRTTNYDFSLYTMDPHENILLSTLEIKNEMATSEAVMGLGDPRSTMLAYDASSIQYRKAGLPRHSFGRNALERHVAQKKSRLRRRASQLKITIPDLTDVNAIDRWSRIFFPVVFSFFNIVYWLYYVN
# UniProt P18507: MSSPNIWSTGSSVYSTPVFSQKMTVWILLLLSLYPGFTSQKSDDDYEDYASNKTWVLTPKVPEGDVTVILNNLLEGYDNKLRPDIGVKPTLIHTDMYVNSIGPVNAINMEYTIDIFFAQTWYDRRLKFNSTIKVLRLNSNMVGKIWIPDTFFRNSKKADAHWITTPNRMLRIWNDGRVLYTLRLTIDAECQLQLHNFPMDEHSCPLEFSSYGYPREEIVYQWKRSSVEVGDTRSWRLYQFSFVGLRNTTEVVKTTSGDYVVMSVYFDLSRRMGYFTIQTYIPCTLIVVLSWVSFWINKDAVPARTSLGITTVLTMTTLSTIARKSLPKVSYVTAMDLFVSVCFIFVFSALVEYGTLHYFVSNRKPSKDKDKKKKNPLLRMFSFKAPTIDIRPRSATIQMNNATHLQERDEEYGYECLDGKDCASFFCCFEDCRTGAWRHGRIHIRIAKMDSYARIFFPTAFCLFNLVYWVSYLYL
# Assay: Positive allosteric modulation of human GABAA receptor alpha1beta2gamma2L expressed in Xenopus laevis oocytes assessed as potentiation of GABA chloride current up to 100 uM incubated for 15 to 25 secs by two-electrode voltage clamp assay relative to control
# Format: cell-based
# How it was run: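 Xenopus laevis oocytes injected with ~100 ng cRNA of human α1, β2, γ2L (1:1:2). Two-electrode voltage clamp at −50 mV, room temperature, perfused with ND96 pH 7.5. Compound diluted from DMSO stock into ND96 (≤1% DMSO final). Applied 15–25 s with ~3 min washes.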
structure (smiles),measurement,value
CC(=O)[C@H]1CC[C@H]2[C@@H]3CC[C@H]4C[C@H](O)CC[C@]4(C)[C@H]3C(=O)C[C@]12C [ALFAXALONE],fold change (FC),30

# From ChEMBL document CHEMBL4138098, “Synthesis and pharmacological evaluation of neurosteroid photoaffinity ligands” (Eur J Med Chem, 2017)
